One may read the IC50 as the concentration that gives 50% inhibition. A lower IC50 goes with greater potency.

Amino acid sequences for entries named in this document (tags omitted). Residues count along the entry.
UniProt P37023, 22-503: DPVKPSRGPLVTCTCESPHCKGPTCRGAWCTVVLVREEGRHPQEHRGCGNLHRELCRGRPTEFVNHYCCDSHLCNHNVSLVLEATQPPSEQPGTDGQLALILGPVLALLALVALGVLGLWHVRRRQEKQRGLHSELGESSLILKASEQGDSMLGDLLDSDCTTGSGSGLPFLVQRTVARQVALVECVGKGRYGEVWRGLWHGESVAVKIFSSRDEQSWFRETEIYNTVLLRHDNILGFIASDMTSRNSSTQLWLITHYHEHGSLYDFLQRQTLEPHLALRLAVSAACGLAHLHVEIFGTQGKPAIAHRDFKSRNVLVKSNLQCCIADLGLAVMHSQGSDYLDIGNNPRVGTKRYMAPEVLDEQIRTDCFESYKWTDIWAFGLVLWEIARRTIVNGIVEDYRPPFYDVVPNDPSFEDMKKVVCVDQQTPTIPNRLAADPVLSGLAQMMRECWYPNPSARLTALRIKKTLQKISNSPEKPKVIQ

In assay [1] the target is T1, ALK1 kinase (Homo sapiens (Human), UniProt P37023). The assay is described as follows: In vitro enzyme inhibition using scintillation of incorporated radio label (flashplate assay). The format is biochemical. The settings on record: biotinylated α-casein, 33P-ATP, 500 nM ATP. On the procedure: B-1a. In Vitro Enzyme Inhibition Using Scintillation of Incorporated Radio Label (Flashplate Assay)
Test compounds diluted in DMSO are mixed with a suitable substrate/co-substrate (here: biotinylated α-casein and ^33P-ATP) in a corresponding assay buffer. Addition of the enzyme of interest (here: ALK1 kinase) starts the enzyme reaction. The enzyme-catalyzed incorporation of radio label into the substrate is measured via scintillation. Incorporated radio label is separated from free radio label via specific binding of the biotinylated substrate to strepavidin-coated microtiter plates (flashplates) and concomitant washing steps. The scintillation signal intensity (counts per minutes, cpm) is proportional to the enzyme activity. Enzyme inhibition results in a decreased signal intensity. IC50 values of the test compounds are determined by cpm-versus-[I] plots. […]
A volume of 9 μl substrate solution is provided into each well of a 384 well microliter plate (Greiner Bio-One, Solingen, Germany), 1 μl compound solution and 5 μl of the radioactive ATP solution are added. […] Finally, 50 μl washing buffer is added, and the scintillation signal (cpm) is measured in a suitable counter (Perkin Elmer, Rodgau, Germany).

For assay [2], the target named is T1, ALK1 kinase. Nature of the assay: ALK1 kinase assay (ProQinase protocol). It is filed as biochemical. The settings on record: ProQinase radiometric assay, casein, γ-33P-ATP. On the procedure: B-1b. ALK1 Kinase Assay (ProQinase Protocol)
ALK1 (Invitrogen, Carlsbad, Calif., USA) kinase activity was measured at ProQinase GmbH (Freiburg, Germany) in a radiometric assay using γ-^33P-ATP and casein (Sigma, St. Louis, Mo., USA) as substrate in 96-well PerkinElmer FlashPlates™ (Boston, Mass., USA). The compounds were tested at 10 concentrations in the range of 1×10^−4 M to 3×10^−9 M in a total volume of 50 μl with a final DMSO concentration of 1% each. […]
The reaction mixtures were incubated at 30° C. for 60 minutes and stopped by adding 50 μl 2% (v/v) phosphoric acid. […] Incorporation of ^33Pi was determined with a microplate scintillation counter (Microbeta, Wallac). […]
Median values obtained from unspecific substrate binding of labelled. ATP were set as background level, while median values measured in the absence of any inhibitor were considered to reflect full activity of ALK1 kinase. […] The residual activity in the latter was calculated as follows: residual activity (%)=100×[(tca−ba)/(fa−ba)]
The residual activities for each concentration and the compound IC50 values were calculated using Quattro Workflow V3.1.0 (Quattro Research GmbH, Munich, Germany). […]

The structures appear in SMILES notation.

In the case of `Nc1ncnn2c(C3CCNC3)cc(-c3cc(F)c(CO)c(F)c3)c12` (racemic) [Example 8, rac-{4-[4-Amino-7-(pyrrolidin-3-yl)pyrrolo[2,1-f][1,2,4]triazin-5-yl]-2,6-difluorophenyl}methanol], half-maximal inhibition on ALK1 kinase [1] (IC50) required 4.4 nM.

With `Nc1ncnn2c(C3CCNC3)cc(-c3cc(F)c(CO)c(F)c3)c12` (single isomer, unassigned; enantiomer 1) [Example 35, ent-{4-[4-Amino-7-(pyrrolidin-3-yl)pyrrolo[2,1-f][1,2,4]triazin-5-yl]-2,6-difluorophenyl}methanol (enantiomer 1)], at ALK1 kinase [2], the IC50 was found to be 6.9 nM.

Take `Nc1ncnn2c(C3CCNC3)cc(-c3cc(F)c(CO)c(F)c3)c12` (single isomer, unassigned; enantiomer 2) [Example 36, ent-{4-[4-Amino-7-(pyrrolidin-3-yl)pyrrolo[2,1-f][1,2,4]triazin-5-yl]-2,6-difluorophenyl}methanol (enantiomer 2)]: the IC50 against ALK1 kinase [2] came out at 21 nM.
